# Source: patent publication EP4825392A1, “METHOD FOR TREATING METABOLIC DISEASES AND PHARMACEUTICAL USE OF GLP-1 ANALOGUE” (dated 2026)
# Legend:
# [1] = Phase II clinical study of efficacy and safety in subjects with type 2 diabetes
# From the text: (§1) • 1) The GLP-1 analogue prepared in Example 1, presented as an injection.
# Subjects must meet all of the following criteria to be eligible for this study: • 1) Aged 18-65 years (inclusive), without restriction on gender; • 2) Diagnosed with type 2 diabetes according to the criteria of the "Guidelines for the Prevention and Treatment of Type 2 Diabetes in China (2020 Edition)", with a duration of at least 6 months since meeting the diagnostic criteria; • 3) Received lifestyle intervention alone for at least 8 weeks prior to screening, or maintained stable monotherapy with metformin (daily dose ≥ 1000 mg) for at least 8 weeks. Stable treatment is defined as no changes in medication type and daily dosage; • 4) 7.5%≤HbA1c≤10.5% at screening; • 5) Body mass index (BMI) at screening: 22.0-40.0kg/m^2 (inclusive); • 6) Body weight fluctuation (the difference between the maximum and minimum body weight within 3 months) shall not exceed 5 kg in the 3 months before screening.
# The investigational drug was administered via subcutaneous injection into the abdomen once a week, either before or after meals.
# First treatment period (weeks 0-19): Subjects received GLP-1 analogue injection at doses of 1.0 mg, 2.0 mg, 3.0 mg and 4.5 mg, as well as placebo, for a 20-week treatment duration.
# Second treatment period (weeks 20-31): The doses of GLP-1 analogue injection or placebo administered in the first treatment period were maintained. The original investigational product groups were additionally given placebo, and the original placebo group received an additional 1.0 mg of the investigational drug. The treatment lasted for 12 weeks.
# Efficacy evaluation indicators include HbA1c, fasting and 2h post-mixed-meal plasma glucose, fasting and 2h post-mixed-meal serum insulin and C-peptide, pancreatic β-cell function, insulin resistance (HOMA model), 7-point SMBG profile, body weight, waist circumference, blood lipids (TC, LDL-C, HDL-C, TG), and blood pressure (systolic blood pressure, diastolic blood pressure), and the like.
# Adverse events, hypoglycemic events, laboratory indicators, 12-lead electrocardiogram, vital signs, etc.
# A total of 199 subjects with type 2 diabetes were randomly assigned in a 1:1:1:1:1 ratio to receive once-weekly subcutaneous injections of GLP-1 analogue (1.0 mg, 2.0 mg, 3.0 mg, and 4.5 mg) or placebo for 20 weeks. The primary endpoint was the change in glycated hemoglobin (HbA1C) relative to baseline after 20 weeks of administration.
# [2] = Clinical study of efficacy and safety in overweight or obese subjects, target dose 8.0 mg QW; conditions: after 36 weeks of administration, 8.0 mg group
# From the text: as §1
# Subjects who are overweight with at least one weight-related comorbidity or obese subjects who had suboptimal response to dietary and lifestyle intervention alone.
# Subjects must meet all of the following criteria to be eligible for this study: • 1) Aged 18-65 years (inclusive), without restriction on gender; • 2) Met the following body mass index (BMI) criteria at screening: • -28.0-40.0 kg/m^2 (inclusive), or • -24.0 (inclusive) - 28.0 (exclusive) kg/m^2 and having at least one weight-related comorbidity • 3) Self-reported diet and exercise intervention for 3 months or more prior to screening, with a body weight fluctuation (the difference between the maximum and minimum body weight within 3 months) not exceeding 5 kg in the latest 3 months;
# The GLP-1 analogue injection or placebo was administered via abdominal subcutaneous injection once a week, either before or after meals. GLP-1 analogue injection or placebo was administered starting at 1.0 mg QW, with dose escalation every 4 weeks, gradually titrated to reach the target dose of 8.0 mg QW. The specific dosing regimen is shown in Table 7 below: Table 7: Dosing regimen
# Efficacy evaluation indicators include body weight, waist circumference, BMI, blood pressure (systolic and diastolic blood pressure), glucose metabolism (fasting plasma glucose, fasting serum insulin, HbA1c), and blood lipids (TG, TC, LDL-C, non-HDL-C, HDL-C).
# (§2) Safety evaluation indicators include adverse events, laboratory indicators, 12-lead electrocardiogram, vital signs, physical examination, PHQ-9 score, etc.
# [3] = Phase II clinical study of efficacy and safety in obese, non-diabetic subjects
# Procedure: • 1) The GLP-1 analogue prepared in Example 1, presented as an injection with a specification of 3ml : 30 mg.
# Subjects must meet all of the following criteria to be eligible for enrollment in this study: • 1) Aged 18-65 years (inclusive), without restriction on gender; • 2) Body mass index (BMI) at screening: 28.0-40.0 kg/m^2 (inclusive); • 3) Self-reported diet and exercise intervention for 3 months or more prior to screening, with a body weight fluctuation (the difference between the maximum and minimum body weight within 3 months) not exceeding 5 kg in the latest 3 months.
# The GLP-1 analogue or placebo was administered via subcutaneous injection into the abdomen, either before or after meals. The detailed dosing regimen is as follows: Table 1. Dosing regimens for the first treatment period (weeks 0-23) and the second treatment period (weeks 24-31)
# Efficacy assessment indicators include body weight, waist circumference, BMI, blood pressure (systolic blood pressure and diastolic blood pressure), glucose metabolism (fasting plasma glucose, fasting serum insulin, insulin resistance (HOMA model*), and HbA1c), and lipids (TC, LDLC, HDL-C, and TG). • *Note: Insulin resistance under the Homeostasis Model Assessment (HOMA) (HOMA-IR) is calculated using the following formula: HOMA−IR = [Fastingplasmaglucose(FPG,mmol/L)×Fastinginsulin(FINS,mIU/L)]/22.5 [formula]
# as §2
# A total of 249 Chinese adults with a body mass index of 28-40kg/m^2 received once-weekly subcutaneous injections of a GLP-1 analogue (1.0 mg QW group, 3.0 mg QW group, 4.5 mg QW group, 6.0 mg QW group) or placebo for 24 weeks (24W), in accordance with the dosing regimen for the first treatment period specified in Table 1.
# [4] = W24, range across the GLP-1 analogue groups (1.0 to 6.0 mg QW)
substance,measurement,setting,value
H-YAibEGTFTSDYSIYK(OEG-OEG-γGlu-C20-OH)EKIAAQEFVNWLLAGGPSSGAPPPS-NH2,Vomiting,"[1]; drug-related gastrointestinal adverse reaction during treatment, 4.5 mg (N=40)",3 (7.5)
same,LS Mean changes in HbA1C from baseline,"[1]; metformin subgroup, week 20, 2.0 mg group",-2.4%
same,LS Mean changes in HbA1C from baseline,"[1]; metformin subgroup, week 20, 3.0 mg group",-2.9%
same,LS Mean changes in HbA1C from baseline,"[1]; metformin subgroup, week 20, 4.5 mg group",-2.2%
same,LS Mean changes in HbA1C from baseline,"[1]; non-metformin subgroup, week 20, 1.0 mg group",-2.3%
same,LS Mean changes in HbA1C from baseline,"[1]; non-metformin subgroup, week 20, 2.0 mg group",-2.7%
same,LS Mean changes in HbA1C from baseline,"[1]; non-metformin subgroup, week 20, 3.0 mg group",-2.5%
same,LS Mean changes in HbA1C from baseline,"[1]; non-metformin subgroup, week 20, 4.5 mg group",-2.7%
same,LS Mean changes in body weight compared to baseline,"[1]; week 20, 1.0 mg group",-3.1%
same,LS Mean changes in triglycerides (TG) compared to baseline,"[1]; week 20, 1.0 mg group",-10.0%
same,LS Mean changes in urinary protein-to-creatinine ratio (UACR) compared to baseline,"[1]; week 20, 1.0 mg group",-18.1%
same,least squares mean (LS Mean) changes in HbA1C from baseline,"[1]; week 20, 1.0 mg group",-2.1%
same,percentages achieving HbA1c < 5.7%,"[1]; week 20, 1.0 mg group",17.5%
same,percentages achieving HbA1c ≤ 6.5%,"[1]; week 20, 1.0 mg group",62.5%
same,percentages of subjects achieving the target HbA1c < 7.0%,"[1]; week 20, 1.0 mg group",75.0%
same,LS Mean changes in body weight compared to baseline,"[1]; week 20, 2.0 mg group",-4.9%
same,LS Mean changes in triglycerides (TG) compared to baseline,"[1]; week 20, 2.0 mg group",-25.9%
same,least squares mean (LS Mean) changes in HbA1C from baseline,"[1]; week 20, 2.0 mg group",-2.6%
same,percentages achieving HbA1c < 5.7%,"[1]; week 20, 2.0 mg group",26.8%
same,percentages achieving HbA1c ≤ 6.5%,"[1]; week 20, 2.0 mg group",80.5%
same,percentages of subjects achieving the target HbA1c < 7.0%,"[1]; week 20, 2.0 mg group",90.2%
same,LS Mean changes in body weight compared to baseline,"[1]; week 20, 3.0 mg group",-5.5%
same,LS Mean changes in systolic blood pressure (SBP) relative to baseline,"[1]; week 20, 3.0 mg group",-10.0%
same,LS Mean changes in triglycerides (TG) compared to baseline,"[1]; week 20, 3.0 mg group",-25.7%
same,LS Mean changes in urinary protein-to-creatinine ratio (UACR) compared to baseline,"[1]; week 20, 3.0 mg group",-46.5%
same,percentages achieving HbA1c < 5.7%,"[1]; week 20, 3.0 mg group",28.2%
same,percentages achieving HbA1c ≤ 6.5%,"[1]; week 20, 3.0 mg group",69.2%
same,percentages of subjects achieving the target HbA1c < 7.0%,"[1]; week 20, 3.0 mg group",84.6%
same,LS Mean changes in body weight compared to baseline,"[1]; week 20, 4.5 mg group",-7.1%
same,LS Mean changes in systolic blood pressure (SBP) relative to baseline,"[1]; week 20, 4.5 mg group",-6.7%
same,LS Mean changes in triglycerides (TG) compared to baseline,"[1]; week 20, 4.5 mg group",-27.9%
same,LS Mean changes in urinary protein-to-creatinine ratio (UACR) compared to baseline,"[1]; week 20, 4.5 mg group",-49.5%
same,least squares mean (LS Mean) changes in HbA1C from baseline,"[1]; week 20, 4.5 mg group",-2.5%
same,percentages achieving HbA1c < 5.7%,"[1]; week 20, 4.5 mg group",35.0%
same,percentages achieving HbA1c ≤ 6.5%,"[1]; week 20, 4.5 mg group",90.0%
same,percentages of subjects achieving the target HbA1c < 7.0%,"[1]; week 20, 4.5 mg group",90.0%
same,least squares mean difference compared with the placebo group (percentage change in body weight),[2],-21.09%
same,percentage change in body weight from baseline,[2],-22.82%
same,subjects who achieved a weight loss of ≥20%,[2],59%
same,treatment-related serious adverse events,"[3]; 24 weeks, 1.0 to 6.0 mg QW groups",No treatment-related serious adverse events occurred
same,least squares mean change in systolic blood pressure from baseline,[3]; [4],-4.46 to -8.33 mmHg
same,least squares mean change in waist circumference from baseline,[3]; [4],-5.14 to -12.73 cm
same,mean percentage change in body weight from baseline,"[3]; week 24, 1.0 mg QW group",-5.4%
same,percentages of participants who experienced a weight loss of ≥5%,"[3]; week 24, 1.0 mg QW group",52.0%
same,mean percentage change in body weight from baseline,"[3]; week 24, 3.0 mg QW group",-13.4%
same,percentages of participants who experienced a weight loss of ≥5%,"[3]; week 24, 3.0 mg QW group",88.2%
same,mean percentage change in body weight from baseline,"[3]; week 24, 4.5 mg QW group",-14.0%
same,percentages of participants who experienced a weight loss of ≥5%,"[3]; week 24, 4.5 mg QW group",92.0%
same,mean percentage change in body weight from baseline,"[3]; week 24, 6.0 mg QW group",-16.8%
same,percentages of participants who experienced a weight loss of ≥5%,"[3]; week 24, 6.0 mg QW group",91.8%
